# From ChEMBL document CHEMBL1143255, “Standard protecting groups create potent and selective kappa opioids: salvinorin B alkoxymethyl ethers” (Bioorg Med Chem, 2008)
# Sequences of proteins named here, by UniProt entry; tags and fusion partners are left off. A change or cut given only in a name is not applied to a line headed by its entry.
# UniProt P41145: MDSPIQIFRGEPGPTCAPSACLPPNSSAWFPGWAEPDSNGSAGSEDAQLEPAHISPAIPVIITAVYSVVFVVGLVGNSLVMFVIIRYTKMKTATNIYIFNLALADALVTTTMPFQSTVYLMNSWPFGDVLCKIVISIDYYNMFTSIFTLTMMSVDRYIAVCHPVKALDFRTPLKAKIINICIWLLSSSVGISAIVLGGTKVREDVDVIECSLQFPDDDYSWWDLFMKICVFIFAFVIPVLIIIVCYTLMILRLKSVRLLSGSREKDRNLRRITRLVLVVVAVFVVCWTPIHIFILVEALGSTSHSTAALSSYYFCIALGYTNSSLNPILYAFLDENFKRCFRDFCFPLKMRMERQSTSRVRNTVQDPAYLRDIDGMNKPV
# Tests used:
# [1] = Selectivity for human kappa opioid receptor over rat mu opioid receptor
# [2] = target: Kappa-type opioid receptor (Homo sapiens, UniProt P41145); experiment: Agonist activity at human kappa opioid receptor expressed in CHO cells assessed as stimulation of [35S]GTPgammaS binding relative to U50488H; assay type: functional, cell-based
# Procedure, shortened: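 Potency and efficacy from [35S]GTPγS binding to membranes of CHO cells stably expressing human κ receptor; testing blinded to compound identity and molecular mass.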
# [3] = Selectivity for human kappa opioid receptor over mouse delta opioid receptor
structure (smiles),measurement,setting,value
COCO[C@H]1C[C@@H](C(=O)OC)[C@]2(C)CC[C@H]3C(=O)O[C@H](c4ccoc4)C[C@]3(C)[C@H]2C1=O,Selectivity ratio,[1],> 1600
same,Emax,[2],81%
same,Selectivity ratio,[3],> 1600
